# Source: ChEMBL document CHEMBL5528084, “Discovery and Characterization of a New Class of C5aR1 Antagonists Showing In Vivo Activity” (J Med Chem, 2024)
# Sequences of proteins named here, by UniProt entry; tags and fusion partners are left off. A change or cut given only in a name is not applied to a line headed by its entry.
# UniProt Q9P296: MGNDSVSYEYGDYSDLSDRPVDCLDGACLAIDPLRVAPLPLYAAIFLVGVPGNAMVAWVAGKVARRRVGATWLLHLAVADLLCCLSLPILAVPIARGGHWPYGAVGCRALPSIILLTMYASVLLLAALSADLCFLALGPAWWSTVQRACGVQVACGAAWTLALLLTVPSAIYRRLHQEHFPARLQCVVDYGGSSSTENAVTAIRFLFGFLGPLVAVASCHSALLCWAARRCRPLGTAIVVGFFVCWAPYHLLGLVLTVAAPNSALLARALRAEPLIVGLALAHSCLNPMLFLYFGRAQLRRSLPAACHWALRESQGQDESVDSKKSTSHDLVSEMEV
# Calls of active or inactive are those of the source. No cut-off for these calls is given here.
# Target: C5a anaphylatoxin chemotactic receptor 2 (Homo sapiens) (UniProt Q9P296)
# Experiment: Inhibition of hC5a binding to C5L2 (unknown origin) upto 25 uM
structure (smiles),measurement,value
Cc1cccc(F)c1N1CCC(N2Cc3ccccc3N(Cc3ccccc3C(F)(F)F)C2=O)CC1,inhibition,inactive
